Inhibition data for 45 molecules are collected here from PubChem BioAssay AID602440 (Sanford-Burnham Center for Chemical Genomics, 2012).

Chains of the proteins cited; added tags and fusions are not shown. Lines headed by an entry give the natural chain unless they say otherwise; changes in a name come on top.
UniProt Q96LD8: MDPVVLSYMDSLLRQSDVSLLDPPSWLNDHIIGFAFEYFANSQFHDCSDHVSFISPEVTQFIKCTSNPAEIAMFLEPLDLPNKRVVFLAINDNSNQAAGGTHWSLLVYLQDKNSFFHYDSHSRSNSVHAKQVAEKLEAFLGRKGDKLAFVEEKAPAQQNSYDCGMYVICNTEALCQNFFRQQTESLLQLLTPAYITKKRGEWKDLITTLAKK

The entries are a selection whose mix differs from that of the whole data set. Active and inactive are the calls of the source. No stated cut-off is given here; in the data, active means inhibition mostly above about 40% (no sharp cut-off); inactive means mostly below about 27%.

Broadly, the inhibition is the relative decrease from the control value, in per cent.

This assay addresses Sentrin-specific protease 8 (Homo sapiens) (UniProt Q96LD8). The experiment in a line: blockers of SENP8 deneddylase activity – biochemical, fluorescence, Nedd8 protein substrate, uHTS, primary screen (AID 602440). The note with it: recombinant SENP8, Nedd8 substrate fluorescence; at 20 µM; active compounds read high.
With `CN1CCCC(OC(=O)C(c2ccccc2)c2ccccc2)C1` (stereo not given), the inhibition was inactive: 10.6%. In the case of `Cc1ccc(OP(=O)(Nc2nccs2)Oc2ccc(C)cc2)cc1` it was inactive: 19%; in that of `COc1ccccc1OP(=O)(Nc1ccc(C)cn1)Oc1ccccc1OC`, inactive: -125%. Take `C[C@@H]1C=CCP(=O)(Oc2ccccc2)O1` (stereo not given in full): the inhibition is inactive: 16.2%. To `C[C@H]1OP(=O)(Oc2ccccc2)C[C@@H]2O[C@@H]21` (stereo not given in full) belongs inactive: 10.7%; to `Cc1ccccc1CN(C)C(=O)COC(=O)C(O)(c1ccccc1)c1ccccc1`, inactive: -1%; to `COC(=O)C1(C)COP(=O)(NCc2ccccc2)OC1` (stereo not given), inactive: 16%.

For the molecule `N#C/C(=C\c1ccc(N(CCBr)CCBr)cc1)C(N)=O`, the inhibition is inactive: -104%.

As to `CC(=O)c1ccc(N2CC2c2ccncc2)cc1` (stereo not given), the inhibition is inactive: 1.1%. For `CC(=O)Nc1ccc(Oc2c([N+](=O)[O-])cc([N+](=O)[O-])cc2[N+](=O)[O-])cc1`, the inhibition was inactive: 20%. For `CC(=O)Nc1ccc([As](=O)(O)O)c(O)c1`, the inhibition was inactive: 26.5%. To `CCOc1ccc(C2=NCC(CBr)S2)cc1` (stereo not given) belongs inactive: -1.9%; to `O=P1(Nc2nc3ccc(Cl)cc3s2)COc2ccccc2O1` (stereo not given), inactive: 20.5%.

In the case of `CC(C)(C)C(=O)NC(Sc1ccccc1)C(Cl)(Cl)Cl` (stereo not given), the inhibition is inactive: -3.2%. Take `CCc1cc(O)c([N+](=O)[O-])c(C)c1[N+](=O)[O-]`: the inhibition is inactive: 18%. In the case of `CCC(=O)N1C2C3N(C(=O)CC)C1C1N(C(=O)CC)C(C(N1C(=O)CC)N3C(=O)CC)N2C(=O)CC` it was inactive: 25.1%; in that of `O=C(OC1CN2CCC1CC2)c1ccccc1` (stereo not given), inactive: 12.2%; in that of `Cc1ccc(OP(=O)(Nc2ccccn2)Oc2ccc(C)cc2)cc1`, inactive: 5.1%. To `CC(=O)NC(SC(=S)N(CC(C)C)CC(C)C)C(Cl)(Cl)Cl` (stereo not given) belongs inactive: 19.7%; to `COC(=O)c1cc2c(s1)N=C(c1ccccc1)N(C)P2(=O)N1CCOCC1` (stereo not given), inactive: 7.9%; to `CN(C)C(=O)Oc1noc2ccccc12`, inactive: 8.9%. As to `O=c1c2cc([N+](=O)[O-])ccc2[nH]c2c([N+](=O)[O-])cc([N+](=O)[O-])cc12`, the inhibition is active: 70.2%. For `Cc1ccccc1OP(=O)(Nc1ccccn1)Oc1ccccc1C`, the inhibition was inactive: -52%. In the case of `CC(NC(=O)COC(=O)C(O)(c1ccccc1)c1ccccc1)c1ccccc1` (stereo not given) it was inactive: 9.1%; in that of `Cc1ccc(NP(=O)(Oc2cccc(C)c2)Oc2cccc(C)c2)nc1`, inactive: -122%.

As to `c1ccc(-c2nn[nH]n2)c(-c2nn[nH]n2)c1`, the inhibition is inactive: 8%. To `CCNC(=S)/N=C(\N)N[N+](=O)[O-]` belongs inactive: 15.1%; to `O=C(NC1CCS(=O)(=O)C1)NP(=S)(Oc1ccccc1)Oc1ccccc1` (stereo not given), inactive: 9.8%. For `O=P1(N(CCCl)CCCl)OCCC2CCCCN21` (stereo not given), the inhibition was inactive: 11.9%.

For `O=[As](O)(c1ccccc1)c1ccc(O)cc1`, the inhibition was inactive: 18.4%. To `O=[N+]([O-])c1ccc(O)c(/C=N/Nc2ccc([N+](=O)[O-])cc2[N+](=O)[O-])c1` belongs active: 42.3%; to `O=[N+]([O-])c1ncn(CCn2cnc([N+](=O)[O-])n2)n1`, inactive: 12.8%; to `CC(=O)NC(SC(=S)N(C)C)C(Cl)(Cl)Cl` (stereo not given), inactive: 16.4%. In the case of `O=C(OC1CN2CCC1CC2)c1cccc(Cl)c1` (stereo not given) it was inactive: 12%. In the case of `Nc1ccc([As](=O)(O)c2ccc([N+](=O)[O-])cc2)cc1` it was inactive: 13%; in that of `C(Cc1nn[nH]n1)Cc1nn[nH]n1`, inactive: 7%.

`O=P(Nc1ccccn1)(c1ccc(Br)cc1)c1ccc(Br)cc1`: the inhibition is inactive: -64.9%. In the case of `CN(C)C1(CNC(=O)c2ccc(Cl)c(S(N)(=O)=O)c2)CCCCC1` it was inactive: 6.9%; in that of `Nc1ccc(CCCCOc2ccccc2)cc1`, inactive: 31.1%; in that of `COc1ccc(N)c([N+](=O)[O-])c1[N+](=O)[O-]`, inactive: 33.4%. To `C[C@H]1OP(=O)(Oc2ccccc2)[C@H](O)[C@H](O)[C@H]1N=[N+]=[N-]` (stereo not given in full) belongs inactive: 13.1%. In the case of `O=P(Nc1nc2ccccc2s1)(c1ccccc1)c1ccccc1`, the inhibition was inactive: 20%. To `CC(C)C(=O)NC(Sc1ccccc1)C(Cl)(Cl)Cl` (stereo not given) belongs inactive: 25.5%; to `O=P(Nc1nccs1)(c1ccccc1)c1ccccc1`, inactive: 3.2%. Take `c1nnnn1CCn1cnnn1`: the inhibition is inactive: 8.1%.
